One data set can be described thus: physchem. Conditions: pH 7, aqueous buffer, kinetic from dmso stock.
A further data set in a line: in vitro. The conditions noted are these: human, microsomes, pH 7.4.

We go through one compound from patent US9138437B2, “Pyrimidine substituted purine compounds as kinase (S) inhibitors” (VERASTEM, INC., priority 2009, dated 2015).

In general, solubility refers to the concentration that dissolves in the medium under given conditions. Low readings indicate a poorly soluble substance, high ones a readily soluble substance. Broadly, the half-life is the time in which the quantity being followed falls by half. A lower half-life goes with fast loss.

≈ marks a conversion by molar mass, not a printed value. Where only a bound is given, the exact number is not on record here.

Regarding `Cc1nc2c(-c3cnc(N)nc3)nc(N3CCOCC3)nc2n1C(C)C` [5-(9-isopropyl-8-methyl-2-morpholin-4-yl-9H-purin-6-yl)-pyrimidin-2-ylamine], the solubility in the data set “physchem” is 178 µM (≈ 63.1 µg/mL). This compound came in with a half-life in “in vitro” greater than 1 h.
